The text below walks through data of ChEMBL document CHEMBL1128506, “Synthesis and dopaminergic activity of pyridine analogs of 5-hydroxy-2-(di-n-propylamino)tetralin” (J Med Chem, 1995).

By UniProt entry, the sequences of proteins in these tests, tags left out.
UniProt P14416, whole entry: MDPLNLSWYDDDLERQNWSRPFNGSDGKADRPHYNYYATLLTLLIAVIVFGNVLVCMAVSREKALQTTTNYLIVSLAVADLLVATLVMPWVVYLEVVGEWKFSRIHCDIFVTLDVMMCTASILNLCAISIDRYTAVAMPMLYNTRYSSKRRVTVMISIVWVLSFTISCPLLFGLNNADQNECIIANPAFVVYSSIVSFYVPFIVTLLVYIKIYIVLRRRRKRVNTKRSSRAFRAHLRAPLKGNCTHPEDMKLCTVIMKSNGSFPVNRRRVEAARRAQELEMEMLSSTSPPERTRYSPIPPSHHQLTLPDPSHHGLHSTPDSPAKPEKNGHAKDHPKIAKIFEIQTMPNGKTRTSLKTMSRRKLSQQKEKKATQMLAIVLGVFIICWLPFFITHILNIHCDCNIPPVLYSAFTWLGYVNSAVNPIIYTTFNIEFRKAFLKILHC
UniProt P35462, whole entry: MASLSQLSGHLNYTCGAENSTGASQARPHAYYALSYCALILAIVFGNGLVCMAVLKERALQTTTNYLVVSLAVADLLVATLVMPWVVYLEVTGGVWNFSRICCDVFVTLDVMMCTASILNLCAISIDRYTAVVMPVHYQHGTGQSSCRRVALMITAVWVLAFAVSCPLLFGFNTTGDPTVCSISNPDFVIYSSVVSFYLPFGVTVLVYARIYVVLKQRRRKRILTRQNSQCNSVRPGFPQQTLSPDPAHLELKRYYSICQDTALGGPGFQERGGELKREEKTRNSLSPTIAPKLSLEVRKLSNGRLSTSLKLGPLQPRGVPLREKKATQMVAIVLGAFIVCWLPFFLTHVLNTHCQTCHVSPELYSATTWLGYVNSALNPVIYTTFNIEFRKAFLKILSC

What all share (format): cell-based
The target in experiment [1] is T1, D(2) dopamine receptor (Homo sapiens, UniProt P14416). Briefly: In vitro binding affinity is the ability to displace [3H]N-0437 from human Dopamine receptor D2 expressed in CHO-K1 cells. Put shortly:
(§1)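 Human D2L receptor expressed in CHO-K1 cells grown in F-12 medium with 10% fetal bovine serum under 5% CO2/95% air. Binding measured by displacement of [3H]spiperone (antagonist ligand) or [3H]N-0437 (agonist ligand); n = 3-4.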

For experiment [2], the target named is T1, D(2) dopamine receptor. As to the kind of experiment: In vitro binding affinity is the ability to displace [3H]spiperone from human Dopamine receptor D2 expressed in CHO-K1 cells. Put shortly: as §1
Experiment [3] addresses D(3) dopamine receptor (Homo sapiens, UniProt P35462). Briefly: In vitro binding affinity is the ability to displace [3H]spiperone from human Dopamine receptor D3 expressed in CHO-K1 cells.

For the compound `CCCN(CCC)C1CCc2c(O)cccc2C1` (stereo not drawn) [5-OH-DPAT], the inhibition constant Ki in experiment [1] came out at 6 nM; in experiment [2], 26 nM; in experiment [3] it was 0.66 nM.
